# In ChEMBL document CHEMBL3885861, “Open TG-GATES”:
# Organism: Rattus norvegicus
# Assay: Open TG-GATES - Regimen: Single
# Type: toxicity, organism-based, Sprague-Dawley
# Parameters: regimen Single, gender Male, age 6 weeks
# Details: in vivo, po, route gavage; for APTT / Fbg / MCH / MCV / Mono / Neu / PT / Plat / RBC / Hb: tissue Blood; for AST / BUN / Ca / Cl / LDH / PL / TC: tissue Plasma; for LIVER: tissue Liver
# [1] = 0 mg/kg, 3 h, dose level Control
# [2] = 0 mg/kg, 6 h, dose level Control
# [3] = 0 mg/kg, 9 h, dose level Control
# [4] = 0 mg/kg, 24 h, dose level Control
# [5] = 10 mg/kg, 3 h, dose level Middle
# [6] = 10 mg/kg, 6 h, dose level Middle
# [7] = 10 mg/kg, 9 h, dose level Middle
# [8] = 10 mg/kg, 24 h, dose level Middle
# [9] = 30 mg/kg, 24 h, dose level High
compound,measurement,setting,value
CNCCC(Oc1ccc(C(F)(F)F)cc1)c1ccccc1.Cl (centres undefined) [FLUOXETINE HYDROCHLORIDE],APTT,[1],15.3 s
same,Fbg,[1],253.8 mg/dL
same,MCH,[1],21.1 pg
same,MCV,[1],65.7 fL
same,Mono,[1],9.2%
same,Neu,[1],17.4%
same,PT,[1],12.3 s
same,Plat,[1],121.8 x10_4/uL
same,RBC,[1],626.6 x10_4/ul
same,AST,[1],69.8 IU/L
same,BUN,[1],11.6 mg/dL
same,Ca,[1],11.4 mg/dL
same,Cl,[1],104.9 meq/L
same,LDH,[1],149.8 IU/L
same,PL,[1],147.4 mg/dL
same,APTT,[2],16 s
same,Fbg,[2],232.8 mg/dL
same,MCH,[2],21.5 pg
same,Mono,[2],10%
same,Neu,[2],17.2%
same,PT,[2],12.3 s
same,Plat,[2],116 x10_4/uL
same,RBC,[2],614.2 x10_4/ul
same,AST,[2],68 IU/L
same,Ca,[2],10.9 mg/dL
same,Cl,[2],107.2 meq/L
same,TC,[2],76.6 mg/dL
same,APTT,[3],16 s
same,Hb,[3],13.1 g/dL
same,MCH,[3],21.7 pg
same,MCV,[3],66.8 fL
same,Mono,[3],9.2%
same,Neu,[3],23.6%
same,PT,[3],12.6 s
same,Plat,[3],127.2 x10_4/uL
same,RBC,[3],602.6 x10_4/ul
same,AST,[3],63 IU/L
same,BUN,[3],11.6 mg/dL
same,Ca,[3],10.4 mg/dL
same,Cl,[3],106.1 meq/L
same,TC,[3],79.4 mg/dL
same,APTT,[4],15.5 s
same,Fbg,[4],238 mg/dL
same,Hb,[4],13 g/dL
same,MCH,[4],21.7 pg
same,Mono,[4],7.8%
same,Neu,[4],14.4%
same,PT,[4],11.7 s
same,Plat,[4],122.2 x10_4/uL
same,LIVER,[4],12.1 g
same,AST,[4],61.6 IU/L
same,BUN,[4],17.4 mg/dL
same,Ca,[4],11 mg/dL
same,Cl,[4],104.3 meq/L
same,LDH,[4],108.6 IU/L
same,PL,[4],165.2 mg/dL
same,TC,[4],87.8 mg/dL
same,APTT,"3 mg/kg, 3 h, dose level Low",15 s
same,Fbg,"3 mg/kg, 3 h, dose level Low",247 mg/dL
same,Hb,"3 mg/kg, 3 h, dose level Low",13.4 g/dL
same,MCH,"3 mg/kg, 3 h, dose level Low",21.4 pg
same,MCV,"3 mg/kg, 3 h, dose level Low",66.4 fL
same,Mono,"3 mg/kg, 3 h, dose level Low",7.2%
same,Neu,"3 mg/kg, 3 h, dose level Low",15.2%
same,PT,"3 mg/kg, 3 h, dose level Low",12.1 s
same,Plat,"3 mg/kg, 3 h, dose level Low",116.4 x10_4/uL
same,RBC,"3 mg/kg, 3 h, dose level Low",630 x10_4/ul
same,Ca,"3 mg/kg, 3 h, dose level Low",11.4 mg/dL
same,Cl,"3 mg/kg, 3 h, dose level Low",104.9 meq/L
same,LDH,"3 mg/kg, 3 h, dose level Low",155.4 IU/L
same,PL,"3 mg/kg, 3 h, dose level Low",154.6 mg/dL
same,TC,"3 mg/kg, 3 h, dose level Low",88.2 mg/dL
same,APTT,"3 mg/kg, 6 h, dose level Low",15.9 s
same,Fbg,"3 mg/kg, 6 h, dose level Low",239.6 mg/dL
same,Hb,"3 mg/kg, 6 h, dose level Low",13.4 g/dL
same,MCV,"3 mg/kg, 6 h, dose level Low",67.7 fL
same,Mono,"3 mg/kg, 6 h, dose level Low",12.6%
same,Neu,"3 mg/kg, 6 h, dose level Low",19.2%
same,Plat,"3 mg/kg, 6 h, dose level Low",116 x10_4/uL
same,RBC,"3 mg/kg, 6 h, dose level Low",608.6 x10_4/ul
same,AST,"3 mg/kg, 6 h, dose level Low",66.8 IU/L
same,Cl,"3 mg/kg, 6 h, dose level Low",106.2 meq/L
same,LDH,"3 mg/kg, 6 h, dose level Low",92.4 IU/L
same,PL,"3 mg/kg, 6 h, dose level Low",149.2 mg/dL
same,TC,"3 mg/kg, 6 h, dose level Low",80 mg/dL
same,APTT,"3 mg/kg, 9 h, dose level Low",16.1 s
same,Fbg,"3 mg/kg, 9 h, dose level Low",236 mg/dL
same,Hb,"3 mg/kg, 9 h, dose level Low",13 g/dL
same,MCH,"3 mg/kg, 9 h, dose level Low",21.7 pg
same,MCV,"3 mg/kg, 9 h, dose level Low",67 fL
same,Mono,"3 mg/kg, 9 h, dose level Low",7.8%
same,Neu,"3 mg/kg, 9 h, dose level Low",22.4%
same,PT,"3 mg/kg, 9 h, dose level Low",12.9 s
same,Plat,"3 mg/kg, 9 h, dose level Low",126 x10_4/uL
same,AST,"3 mg/kg, 9 h, dose level Low",59.6 IU/L
same,Ca,"3 mg/kg, 9 h, dose level Low",10.6 mg/dL
same,Cl,"3 mg/kg, 9 h, dose level Low",105.1 meq/L
same,LDH,"3 mg/kg, 9 h, dose level Low",147.2 IU/L
same,TC,"3 mg/kg, 9 h, dose level Low",77.6 mg/dL
same,APTT,"3 mg/kg, 24 h, dose level Low",16.2 s
same,Fbg,"3 mg/kg, 24 h, dose level Low",234.8 mg/dL
same,Hb,"3 mg/kg, 24 h, dose level Low",13.1 g/dL
same,MCH,"3 mg/kg, 24 h, dose level Low",21.7 pg
same,MCV,"3 mg/kg, 24 h, dose level Low",66.8 fL
same,Mono,"3 mg/kg, 24 h, dose level Low",8.8%
same,Neu,"3 mg/kg, 24 h, dose level Low",17.8%
same,Plat,"3 mg/kg, 24 h, dose level Low",117 x10_4/uL
same,RBC,"3 mg/kg, 24 h, dose level Low",602.6 x10_4/ul
same,AST,"3 mg/kg, 24 h, dose level Low",64.6 IU/L
same,Ca,"3 mg/kg, 24 h, dose level Low",11 mg/dL
same,Cl,"3 mg/kg, 24 h, dose level Low",104.9 meq/L
same,LDH,"3 mg/kg, 24 h, dose level Low",149.8 IU/L
same,PL,"3 mg/kg, 24 h, dose level Low",156 mg/dL
same,TC,"3 mg/kg, 24 h, dose level Low",79.8 mg/dL
same,APTT,[5],15.1 s
same,Fbg,[5],240.2 mg/dL
same,Hb,[5],13.4 g/dL
same,MCH,[5],21.7 pg
same,MCV,[5],67.6 fL
same,Mono,[5],9.8%
same,Neu,[5],20.8%
same,PT,[5],12.3 s
same,Plat,[5],117.2 x10_4/uL
same,RBC,[5],615.2 x10_4/ul
same,LIVER,[5],11.6 g
same,AST,[5],70.6 IU/L
same,Ca,[5],12.1 mg/dL
same,Cl,[5],103.5 meq/L
same,LDH,[5],179.2 IU/L
same,PL,[5],165.8 mg/dL
same,TC,[5],86.6 mg/dL
same,APTT,[6],15.5 s
same,Fbg,[6],242.2 mg/dL
same,Hb,[6],13.3 g/dL
same,MCV,[6],67.2 fL
same,Mono,[6],8.2%
same,Neu,[6],20.6%
same,PT,[6],12.4 s
same,Plat,[6],123.6 x10_4/uL
same,RBC,[6],606.8 x10_4/ul
same,AST,[6],62.4 IU/L
same,Ca,[6],11.3 mg/dL
same,Cl,[6],107.3 meq/L
same,LDH,[6],98.2 IU/L
same,PL,[6],151 mg/dL
same,TC,[6],88.8 mg/dL
same,APTT,[7],16.2 s
same,Fbg,[7],230.8 mg/dL
same,Hb,[7],13.1 g/dL
same,MCH,[7],21.2 pg
same,MCV,[7],65.2 fL
same,Mono,[7],6.8%
same,Neu,[7],17%
same,PT,[7],12.9 s
same,Plat,[7],117.2 x10_4/uL
same,RBC,[7],617.2 x10_4/ul
same,AST,[7],60.2 IU/L
same,Ca,[7],10.5 mg/dL
same,Cl,[7],105.6 meq/L
same,LDH,[7],110.8 IU/L
same,TC,[7],78 mg/dL
same,Fbg,[8],227.4 mg/dL
same,Hb,[8],13.4 g/dL
same,MCH,[8],21.7 pg
same,MCV,[8],66.7 fL
same,Mono,[8],8.6%
same,Neu,[8],14.2%
same,Plat,[8],114.4 x10_4/uL
same,RBC,[8],618.2 x10_4/ul
same,AST,[8],61.2 IU/L
same,Ca,[8],10.8 mg/dL
same,LDH,[8],125.2 IU/L
same,PL,[8],164 mg/dL
same,TC,[8],86.2 mg/dL
same,APTT,"30 mg/kg, 3 h, dose level High",15.2 s
same,Fbg,"30 mg/kg, 3 h, dose level High",239.2 mg/dL
same,Hb,"30 mg/kg, 3 h, dose level High",13 g/dL
same,MCH,"30 mg/kg, 3 h, dose level High",21.6 pg
same,MCV,"30 mg/kg, 3 h, dose level High",66.1 fL
same,Neu,"30 mg/kg, 3 h, dose level High",18.4%
same,Plat,"30 mg/kg, 3 h, dose level High",110.8 x10_4/uL
same,RBC,"30 mg/kg, 3 h, dose level High",604 x10_4/ul
same,AST,"30 mg/kg, 3 h, dose level High",68.4 IU/L
same,Ca,"30 mg/kg, 3 h, dose level High",11.7 mg/dL
same,Cl,"30 mg/kg, 3 h, dose level High",105.2 meq/L
same,LDH,"30 mg/kg, 3 h, dose level High",127.2 IU/L
same,PL,"30 mg/kg, 3 h, dose level High",166.4 mg/dL
same,TC,"30 mg/kg, 3 h, dose level High",95.6 mg/dL
same,APTT,"30 mg/kg, 6 h, dose level High",16.2 s
same,Fbg,"30 mg/kg, 6 h, dose level High",234.4 mg/dL
same,Hb,"30 mg/kg, 6 h, dose level High",13.6 g/dL
same,MCH,"30 mg/kg, 6 h, dose level High",21.7 pg
same,MCV,"30 mg/kg, 6 h, dose level High",67.4 fL
same,Mono,"30 mg/kg, 6 h, dose level High",7%
same,PT,"30 mg/kg, 6 h, dose level High",12.6 s
same,Plat,"30 mg/kg, 6 h, dose level High",121.2 x10_4/uL
same,RBC,"30 mg/kg, 6 h, dose level High",624.2 x10_4/ul
same,AST,"30 mg/kg, 6 h, dose level High",62.8 IU/L
same,Ca,"30 mg/kg, 6 h, dose level High",10.9 mg/dL
same,Cl,"30 mg/kg, 6 h, dose level High",108.1 meq/L
same,LDH,"30 mg/kg, 6 h, dose level High",90.2 IU/L
same,TC,"30 mg/kg, 6 h, dose level High",78 mg/dL
same,APTT,"30 mg/kg, 9 h, dose level High",15.7 s
same,Fbg,"30 mg/kg, 9 h, dose level High",247 mg/dL
same,MCH,"30 mg/kg, 9 h, dose level High",21.1 pg
same,MCV,"30 mg/kg, 9 h, dose level High",65.1 fL
same,Mono,"30 mg/kg, 9 h, dose level High",6.8%
same,Neu,"30 mg/kg, 9 h, dose level High",14.8%
same,PT,"30 mg/kg, 9 h, dose level High",12.9 s
same,Plat,"30 mg/kg, 9 h, dose level High",119 x10_4/uL
same,RBC,"30 mg/kg, 9 h, dose level High",627.2 x10_4/ul
same,AST,"30 mg/kg, 9 h, dose level High",64.4 IU/L
same,Ca,"30 mg/kg, 9 h, dose level High",10.8 mg/dL
same,Cl,"30 mg/kg, 9 h, dose level High",104.3 meq/L
same,LDH,"30 mg/kg, 9 h, dose level High",105.2 IU/L
same,TC,"30 mg/kg, 9 h, dose level High",84.2 mg/dL
same,APTT,[9],16 s
same,Fbg,[9],232.6 mg/dL
same,Hb,[9],13.1 g/dL
same,MCH,[9],21.5 pg
same,MCV,[9],66.1 fL
same,Mono,[9],7.4%
same,PT,[9],12.4 s
same,AST,[9],58.8 IU/L
same,BUN,[9],17.8 mg/dL
same,Cl,[9],104.9 meq/L
same,LDH,[9],121.6 IU/L
same,PL,[9],149.8 mg/dL
same,TC,[9],82.6 mg/dL
